From PubChem BioAssay AID485273 (Sanford-Burnham Center for Chemical Genomics, 2010) come the findings set out here.

The chains behind the UniProt entries cited, without tags or fusion partners.
UniProt P61088, whole entry, looked up: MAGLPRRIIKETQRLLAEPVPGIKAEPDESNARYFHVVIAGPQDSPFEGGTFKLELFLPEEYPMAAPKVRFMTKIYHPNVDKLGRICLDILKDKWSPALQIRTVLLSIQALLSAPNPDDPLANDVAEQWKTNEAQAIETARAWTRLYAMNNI

This is a selection; strong and weak results do not stand in their true shares. Some salts or complexes appear as unconnected parts, following the source record. Activity calls are given as the source filed them. Cut-off read from the data, not from the text of the source: active = inhibition above about 45% (passing the limit was not always enough); inconclusive = no clear call, values can overlap the other calls.

For orientation: inhibition means the relative decrease from the control value, in per cent.

For this test, the target named is Ubiquitin-conjugating enzyme E2 N (Homo sapiens) (UniProt P61088). Briefly: blockers of UBC13 ubiquitin chain synthesis – biochemical, TR-FRET, uHTS, primary screen (AID 485273). The conditions noted are these: UBC13 polyubiquitin chain formation, at 20 µM, stronger effect = higher value. A general note: TR-FRET usually uses a lanthanide donor and a delayed reading to cut background.
Consider `COc1ccc2c(c1O)-c1c(O)c(OC)cc3c1[C@H](C2)[N+](C)(C)CC3.O=[N+]([O-])c1cc([N+](=O)[O-])c([O-])c([N+](=O)[O-])c1[O-]`, for which the inhibition was inactive: -31.4%.

`CP(=O)(Nc1ccccc1F)Oc1ccccc1` (stereo not drawn): the inhibition is inactive: 3.4%.

`CC(C)c1ccc(OP(C)(=O)Nc2ccc(SC(F)(F)F)cc2)cc1` (stereo not drawn): the inhibition was inactive: 3.4%.

As to `CP(=O)(Nc1ccc2c(c1)OCCO2)Oc1ccccc1` (stereo not drawn), the inhibition was inactive: 1%.

`Cc1ccccc1NP(C)(=O)Nc1ccccc1C`: the inhibition was inactive: -10.1%.

Turning to `CP(=O)(Nc1ccc(SC(F)(F)F)cc1)Oc1ccc(F)cc1` (stereo not drawn), the inhibition is inactive: 3.8%.

Regarding `CCOP(C)(=S)SCC(=O)NC(C)(CC)C(=O)O` (stereo not drawn), the inhibition is inactive: 12.5%.

`O=[N+]([O-])c1cc([N+](=O)[O-])c(NCC2CCS(=O)(=O)C2)c([N+](=O)[O-])c1` (stereo not drawn): the inhibition is inactive: -20.6%.

For `COc1ccc(OP(C)(=O)Nc2cccc(Br)c2)cc1` (stereo not drawn), the inhibition was inactive: 6%.

Take `CN(C)CCOC(=O)C(O)(c1ccccc1)C1CCCCC1` (stereo not drawn): the inhibition was inactive: 4.1%.

On to `COc1ccc(NP(C)(=O)Oc2ccccc2OC)cc1` (stereo not drawn), for which the inhibition is inactive: 3.7%.

`Nc1ccc2c(ccc3cccnc32)n1.O=[N+]([O-])c1cc([N+](=O)[O-])c(O)c([N+](=O)[O-])c1`: the inhibition is inactive: 0.5%.

Turning to `CCOC(=O)c1ccc(NP(C)(=O)Oc2ccc(Cl)cc2)cc1` (stereo not drawn), the inhibition was inactive: 14.9%.

Regarding `CP(=O)(OC12CC3CC(CC(C3)C1)C2)OC12CC3CC(CC(C3)C1)C2`, the inhibition is inactive: -1.4%.

As to `COc1ccccc1OP(C)(=O)Nc1ccccc1Br` (stereo not drawn), the inhibition was inactive: -1.7%.

As to `CC(C)(C)c1ccc(OP(C)(=O)O)cc1`, the inhibition is inactive: -0.9%.

As to `CP(=O)(Nc1ccc(Cl)cc1)Oc1ccc(F)cc1` (stereo not drawn), the inhibition was inactive: -4.2%.

As to `CN(C)C(=O)c1c([N+](=O)[O-])cc([N+](=O)[O-])cc1[N+](=O)[O-]`, the inhibition was inactive: -4.1%.

For `COc1ccc(OP(C)(=O)Nc2ccc(Br)cc2)cc1` (stereo not drawn), the inhibition is inactive: 4.9%.

With `CCN(CC)CC(O)COC(=O)C(O)(c1ccccc1)C1CCCCC1` (stereo not drawn), the inhibition was inactive: 9.5%.

Regarding `O=C(OCCCN1CCCC1)C(O)(c1ccccc1)C1CCCCC1` (stereo not drawn), the inhibition is inactive: 10.6%.

For `COc1ccccc1OP(C)(=O)Nc1c(C)n(C)n(-c2ccccc2)c1=O` (stereo not drawn), the inhibition was inactive: 3.3%.

For the compound `CCc1ccc(OP(C)(=O)Nc2cccnc2)cc1` (stereo not drawn), the inhibition is inactive: 18.5%.

Turning to `CP(=O)(Oc1ccccc1)N1CCOC1=O` (stereo not drawn), the inhibition is inactive: -0.6%.

On to `Cc1c(NP(C)(=O)Oc2ccc(C(C)C)cc2)c(=O)n(-c2ccccc2)n1C` (stereo not drawn), for which the inhibition is inactive: -0.6%.

As for `O=[N+]([O-])c1cc([N+](=O)[O-])c(Nc2ccccn2)c([N+](=O)[O-])c1`, the inhibition was inactive: -25.1%.

In the case of `COc1ccccc1OP(C)(=O)Nc1ccc(C)cc1C` (stereo not drawn), the inhibition is inactive: -1.8%.

Regarding `CP(=O)(Nc1ccccn1)Oc1ccccc1` (stereo not drawn), the inhibition was inactive: -0.1%.

With `CCc1ccc(OP(C)(=O)O)cc1`, the inhibition was inactive: 0.5%.

Take `COc1ccccc1OP(C)(=O)Nc1ccc(Br)cc1` (stereo not drawn): the inhibition was inactive: -2.5%.

Turning to `COc1ccc(OP(C)(=O)Nc2ccccn2)cc1` (stereo not drawn), the inhibition was inactive: 4.6%.

As to `CN(C)CCOC(=O)C(O)(c1ccccc1)C1CCCC1` (stereo not drawn), the inhibition was inactive: -2.1%.

As to `Cc1nc2ccc3ccccc3c2o1.O=[N+]([O-])c1cc([N+](=O)[O-])c(O)c([N+](=O)[O-])c1`, the inhibition was inactive: -21.9%.

`CP(=O)(Nc1ccc(Cl)cc1Cl)Oc1ccccc1` (stereo not drawn): the inhibition is inactive: -12.5%.

Take `CP(=O)(OCCOc1ccccc1)OCCOc1ccccc1`: the inhibition is inactive: -7.2%.

As to `Cc1cc(C)cc(OP(C)(=O)Nc2cccc(C(F)(F)F)c2)c1` (stereo not drawn), the inhibition was inactive: 8.9%.

Consider `COc1ccccc1OP(C)(=O)Nc1ccc(C)c(C)c1` (stereo not drawn), for which the inhibition was inactive: 5.3%.

As for `COc1ccc(OP(C)(=O)Nc2ccccc2Br)cc1` (stereo not drawn), the inhibition is inactive: 0.2%.
